The entries are a selection whose mix differs from that of the whole data set. Activity calls are given as the source filed them.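 The calls were made as follows: active = inhibition above a set limit, placed 3 SD over the median of all compounds (cut at about 26% in these data); inactive = the rest.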
Experiment: rescue of nicotinamide-shortened yeast lifespan – S. cerevisiae, OD615, primary screen (AID 775);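 also: 0% = nicotinamide-treated wells and 100% = cells grown without nicotinamide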
Settings: S. cerevisiae growth with nicotinamide, at 10 µM, hits give high values, deaD strain in restrictive glucose medium

Row | SMILES | inhibition of the nicotinamide effect
1 | Cc1ccc(NCCc2c([N+](=O)[O-])cc([N+](=O)[O-])cc2[N+](=O)[O-])cc1 | inactive: 7.84%
2 | COc1cc(C2NCCC3(OCCO3)C2(C)C)cc(OC)c1OC (stereo not given) | inactive: -5.1%
3 | CCOP(=O)(Nc1cccc2ccccc12)OCC | inactive: 3.03%
4 | Cc1cccc(OCC(=O)OC2CN3CCC2CC3)c1 (stereo not given) | inactive: -7.18%
5 | CCOP1(=S)c2c(C)nn(CCC#N)c2N=C(c2ccc(F)cc2)N1C (stereo not given) | inactive: -10.7%
6 | O=[N+]([O-])c1ccc2c(c1)nnn2O | inactive: -9.55%
7 | CCOP1(=S)c2c(C)nn(CCC#N)c2N=C(c2ccccc2F)N1C (stereo not given) | inactive: -11.2%
8 | O=P(Nc1nccs1)(c1ccccc1)c1nc2ccccc2s1 (stereo not given) | inactive: -12.2%
9 | O=P1(Nc2ncccn2)COc2ccccc2OC1 | inactive: -2.51%
10 | O=P1(Nc2ccc(Br)cn2)COc2ccccc2OC1 | inactive: -0.76%
11 | Cc1ccc(OCC(=O)OC2CN3CCC2CC3)cc1 (stereo not given) | inactive: 2.83%
12 | Cc1nn(-c2ccccc2)c2c1P(=O)(N1CCOCC1)N(C)C(c1ccccc1)=N2 (stereo not given) | inactive: -20.8%
13 | O=P1(Nc2ccccn2)COc2ccccc2OC1 | inactive: -0.11%
14 | Clc1n[nH]nc1-c1nn[nH][15n]1 | inactive: -2.04%
15 | COP1(=S)c2c(C)nn(CCC#N)c2N=C(c2ccc(F)cc2)N1C (stereo not given) | inactive: -8.85%
16 | O=C(COc1ccccc1)OC1CN2CCC1CC2 (stereo not given) | inactive: -15.9%
17 | Cc1cc(SC(NC(=O)c2ccccc2)C(Cl)(Cl)Cl)nc(C(C)C)n1 (stereo not given) | inactive: -7.74%
18 | CCN(CC)C(=S)SC(NC=O)C(Cl)(Cl)Cl (stereo not given) | inactive: -22.6%
19 | O=[N+]([O-])c1cc([N+](=O)[O-])c(-c2ccn[nH]2)s1 | inactive: -7.76%
20 | Cc1ccc2nc3c(c(C)c2c1)CC(C(Cl)Cl)S3 (stereo not given) | inactive: -3.66%
21 | Cc1c2c(nc3ccccc13)SC(C(Cl)Cl)C2 (stereo not given) | inactive: -3.49%
22 | O=C(OC1CN2CCC1CC2)C12CC3CC(CC(C3)C1)C2 (stereo not given) | inactive: -11.8%
23 | Oc1ccccc1CNc1ccccn1 | inactive: -0.22%

Row | SMILES | inhibition of the nicotinamide effect
24 | Cc1c2non([O-])c-2c(C)[n+](=O)[n+]1[O-] | inactive: 20.1%
25 | O=C(NC(Sc1ccncn1)C(Cl)(Cl)Cl)c1ccccc1 (stereo not given) | inactive: 23.3%
26 | CC(C)CC(=O)NC(Sc1ccc(Cl)cc1)C(Cl)(Cl)Cl (stereo not given) | inactive: 11%
27 | CCN(N=Nc1nonc1N)c1nonc1N | inactive: 6.9%
28 | CCOP(=O)(Nc1ccccc1)OCC | inactive: 2.46%
29 | Cc1cc(SC(NC(=O)c2ccc(F)cc2)C(Cl)(Cl)Cl)ncn1 (stereo not given) | inactive: 1.89%
30 | CC1CCN(C(=O)Oc2c(Cl)cc(Cl)c3cccnc23)CC1 | inactive: -4.32%
31 | CN(C)C(=O)OCCc1n(C)cc[n+]1C | inactive: 6.75%
32 | CCc1nc2c(n1)c1c(non1O)c1c2no[n+]1[O-] | inactive: -6.16%
33 | O=[N+]([O-])c1cccc2n[nH]nc12 | inactive: -5.56%
34 | CC(=O)N1C2C3N(C(C)=O)C1C1N(C(C)=O)C(C(N1C(C)=O)N3C(C)=O)N2C(C)=O | inactive: -3.52%
35 | CC(C)C(=O)NC(Sc1ccccc1)C(Cl)(Cl)Cl (stereo not given) | inactive: 4.96%
36 | O=P(Nc1nccs1)(c1ccccc1)c1ccccc1 | inactive: -8.09%
37 | c1nnnn1CCn1cnnn1 | inactive: -2.8%
38 | CC(=O)NC(SC(=S)N(C)C)C(Cl)(Cl)Cl (stereo not given) | inactive: 15.1%
39 | O=C(OC1CN2CCC1CC2)c1cccc(Cl)c1 (stereo not given) | inactive: -27.9%
40 | C(Cc1nn[nH]n1)Cc1nn[nH]n1 | inactive: 3.69%
41 | CCC(=O)N1C2C3N(C(=O)CC)C1C1N(C(=O)CC)C(C(N1C(=O)CC)N3C(=O)CC)N2C(=O)CC | inactive: -16.6%
42 | COC(=O)c1cc2c(s1)N=C(c1ccccc1)N(C)P2(=O)N1CCOCC1 (stereo not given) | inactive: -11.7%
43 | CC(=O)NC(SC(=S)N(CC(C)C)CC(C)C)C(Cl)(Cl)Cl (stereo not given) | inactive: 4.82%
44 | CCOC(=O)NC(Sc1ccccc1)C(Cl)(Cl)Cl (stereo not given) | inactive: -0.68%
45 | O=P1(Nc2nc3ccc(Cl)cc3s2)COc2ccccc2O1 (stereo not given) | inactive: -14.5%
